Test results published in US20260284003A1, “COMPOSITIONS AND METHOD FOR MANAGEMENT OF PAIN AND ALLERGY” (priority 2023, published 2026).

Assays:
Format in all cases: in vivo, C57BL/6 mice
TRPV1 = TRPV1 expression in spinal tissue lysate (Western blotting); conditions: normalized to GAPDH, cisplatin = 1, control 0.3, BCP 10 mg, PEA 5 mg, BPE 10 mg, BPB 15 mg, Ibuprofen 30 mg, oral 21 days
Description: (§1) In the current study, TRPV1 and COX-2 expression was assessed in the spinal tissue lysate of the animals, using Western blotting. Briefly, proteins from the spinal tissue were separated in a 10% SDS-PAGE and transferred to PVDF membrane. The TRPV1 and COX-2 expressions were probed using specific monoclonal antibodies (ABclonal, Dusseldorf, Germany). GAPDH was used as housekeeping gene control. The expression of TRPV1 and COX-2 were normalized to that of GAPDH, and fold change was calculated w.r.t cisplatin group.

COX-2 = COX-2 expression in spinal tissue lysate (Western blotting); conditions: normalized to GAPDH, cisplatin = 1, control 0.7, BCP 10 mg, PEA 5 mg, BPE 10 mg, BPB 15 mg, Ibuprofen 30 mg, oral 21 days
Description: as §1

[1] = test system: Cisplatin induced peripheral neuropathy animal models; experiment: Tail-flick test, cisplatin induced peripheral neuropathy; conditions: tail withdrawal latency; BCP 10 mg, PEA 5 mg, BPE 10 mg, BPB 15 mg, Ibuprofen 30 mg
Description: This is a test of acute nociception in which a high-intensity thermal stimulus is directed to the tail of a mouse or a rat. The time from onset of stimulation to a rapid flick/withdrawal of the tail from heat source is recorded. Thermal (radiant heat) sensation of animal tail part was assessed by observation of tail flick response as per D'Aemour and Smith method with minor modifications (Hargreaves et al. A new and sensitive method for measuring thermal nociception in cutaneous hyperalgesia. Pain 32 (1988) 77-88). The one-centimeter distance from the tail terminal region was located on the slit of the plantar device. Thermal sensitivity of mice tail was recorded as tail withdrawal latency. Brisk withdrawal of tail from the plantar device was considered as a progression of neuropathic pain. Cut-off stimuli, i.e., 15 s was maintained to avoid potential tissue damage. Mice were tested after 24 h of treatment injections for the drug-response evaluation.

[2] = test system: Cisplatin induced peripheral neuropathy animal models; experiment: Hot plate test, cisplatin induced peripheral neuropathy; conditions: reaction latency, 52° C.; BCP 10 mg, PEA 5 mg, BPE 10 mg, BPB 15 mg, Ibuprofen 30 mg
Description: Animals are placed on the hot plate one at a time. Latency to respond to the heat stimulus is measured by the amount of time it takes for the animal to lick one of its paws. Animals were placed on a hot-plate apparatus. In order to measure thermal pain, the temperature of the hot plate surface was set to 52° C. The reaction latency as well as the time between when the animals were placed and the onset of paw-licking or jumping behaviors were measured in seconds(s). To minimize tissue damage, a cut-off time of 40 s was adopted (Moureq et al. Alleviation of cisplatin-induced neuropathic pain, neuronal apoptosis, and systemic inflammation in mice by rapamycin., Frontiers in Aging Neuroscience., 14, 2022).

CC(C)Cc1ccc(C(C)C(=O)O)cc1 (stereo not shown) [Ibuprofen, reference compound]
TRPV1 expression (fold change w.r.t cisplatin group) (TRPV1): 1.8 | Cox 2 expression (fold change w.r.t cisplatin group) (COX-2): 0.6 | Tail Flick test Mean Diff., Cisplatin vs. treatment (Tukey's multiple comparisons test) [1]: −6.25 | Hot plate test Mean Diff., Cisplatin vs. treatment (Tukey's multiple comparisons test) [2]: −18.79
